Experimental data taken from ChEMBL document CHEMBL6134891, “Thienopyrimidinone Derivatives as a GluN2B/C/D Biased, Positive Allosteric Modulator of the N-Methyl-d-Aspartate Receptor” (J Med Chem, 2025).
Converted amounts (≈) assume the structure as drawn. Blank lines part the entries; values can stand above or below the compound they belong to.

By UniProt entry, the sequences of proteins in these tests, tags left out. Where a name states a change or a piece, a line headed by the entry shows the natural chain unless it says otherwise.
UniProt Q00960, whole entry, looked up: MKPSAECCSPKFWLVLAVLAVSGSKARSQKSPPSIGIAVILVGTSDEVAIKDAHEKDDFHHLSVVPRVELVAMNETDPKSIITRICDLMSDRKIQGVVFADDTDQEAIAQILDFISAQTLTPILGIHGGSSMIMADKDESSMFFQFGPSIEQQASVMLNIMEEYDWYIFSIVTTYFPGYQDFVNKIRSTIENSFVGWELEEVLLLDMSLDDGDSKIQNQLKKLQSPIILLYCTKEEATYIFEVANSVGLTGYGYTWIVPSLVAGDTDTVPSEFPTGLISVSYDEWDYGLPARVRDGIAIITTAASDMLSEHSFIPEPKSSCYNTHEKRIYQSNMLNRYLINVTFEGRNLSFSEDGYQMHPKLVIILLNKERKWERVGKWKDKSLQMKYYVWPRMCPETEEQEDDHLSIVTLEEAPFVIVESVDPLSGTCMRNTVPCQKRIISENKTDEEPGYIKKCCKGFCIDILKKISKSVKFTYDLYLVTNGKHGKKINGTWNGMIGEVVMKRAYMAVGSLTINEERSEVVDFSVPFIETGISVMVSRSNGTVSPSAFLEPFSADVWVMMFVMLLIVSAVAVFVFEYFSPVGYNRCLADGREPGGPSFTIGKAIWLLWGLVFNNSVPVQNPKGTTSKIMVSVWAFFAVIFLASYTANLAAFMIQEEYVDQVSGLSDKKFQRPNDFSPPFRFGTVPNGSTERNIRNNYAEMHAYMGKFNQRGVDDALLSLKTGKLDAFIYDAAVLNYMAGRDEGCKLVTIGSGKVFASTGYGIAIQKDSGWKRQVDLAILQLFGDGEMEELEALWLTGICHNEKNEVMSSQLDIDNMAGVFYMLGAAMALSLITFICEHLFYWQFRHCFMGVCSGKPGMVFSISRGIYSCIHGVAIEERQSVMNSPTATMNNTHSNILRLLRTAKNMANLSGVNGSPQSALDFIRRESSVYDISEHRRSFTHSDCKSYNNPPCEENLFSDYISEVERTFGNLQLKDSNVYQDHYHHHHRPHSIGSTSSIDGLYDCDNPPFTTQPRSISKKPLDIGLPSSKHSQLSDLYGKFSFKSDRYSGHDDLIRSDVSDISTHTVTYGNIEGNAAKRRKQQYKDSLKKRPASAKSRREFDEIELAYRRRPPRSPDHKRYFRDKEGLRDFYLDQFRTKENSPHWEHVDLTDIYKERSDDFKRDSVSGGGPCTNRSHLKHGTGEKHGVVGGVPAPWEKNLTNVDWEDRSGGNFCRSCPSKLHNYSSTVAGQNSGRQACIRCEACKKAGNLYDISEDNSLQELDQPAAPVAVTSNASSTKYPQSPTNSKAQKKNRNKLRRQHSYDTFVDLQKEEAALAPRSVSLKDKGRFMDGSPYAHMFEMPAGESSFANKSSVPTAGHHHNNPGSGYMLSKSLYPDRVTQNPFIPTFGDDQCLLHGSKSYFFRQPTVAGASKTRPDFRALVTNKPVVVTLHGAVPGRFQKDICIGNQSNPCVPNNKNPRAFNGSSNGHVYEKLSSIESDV
UniProt Q00961: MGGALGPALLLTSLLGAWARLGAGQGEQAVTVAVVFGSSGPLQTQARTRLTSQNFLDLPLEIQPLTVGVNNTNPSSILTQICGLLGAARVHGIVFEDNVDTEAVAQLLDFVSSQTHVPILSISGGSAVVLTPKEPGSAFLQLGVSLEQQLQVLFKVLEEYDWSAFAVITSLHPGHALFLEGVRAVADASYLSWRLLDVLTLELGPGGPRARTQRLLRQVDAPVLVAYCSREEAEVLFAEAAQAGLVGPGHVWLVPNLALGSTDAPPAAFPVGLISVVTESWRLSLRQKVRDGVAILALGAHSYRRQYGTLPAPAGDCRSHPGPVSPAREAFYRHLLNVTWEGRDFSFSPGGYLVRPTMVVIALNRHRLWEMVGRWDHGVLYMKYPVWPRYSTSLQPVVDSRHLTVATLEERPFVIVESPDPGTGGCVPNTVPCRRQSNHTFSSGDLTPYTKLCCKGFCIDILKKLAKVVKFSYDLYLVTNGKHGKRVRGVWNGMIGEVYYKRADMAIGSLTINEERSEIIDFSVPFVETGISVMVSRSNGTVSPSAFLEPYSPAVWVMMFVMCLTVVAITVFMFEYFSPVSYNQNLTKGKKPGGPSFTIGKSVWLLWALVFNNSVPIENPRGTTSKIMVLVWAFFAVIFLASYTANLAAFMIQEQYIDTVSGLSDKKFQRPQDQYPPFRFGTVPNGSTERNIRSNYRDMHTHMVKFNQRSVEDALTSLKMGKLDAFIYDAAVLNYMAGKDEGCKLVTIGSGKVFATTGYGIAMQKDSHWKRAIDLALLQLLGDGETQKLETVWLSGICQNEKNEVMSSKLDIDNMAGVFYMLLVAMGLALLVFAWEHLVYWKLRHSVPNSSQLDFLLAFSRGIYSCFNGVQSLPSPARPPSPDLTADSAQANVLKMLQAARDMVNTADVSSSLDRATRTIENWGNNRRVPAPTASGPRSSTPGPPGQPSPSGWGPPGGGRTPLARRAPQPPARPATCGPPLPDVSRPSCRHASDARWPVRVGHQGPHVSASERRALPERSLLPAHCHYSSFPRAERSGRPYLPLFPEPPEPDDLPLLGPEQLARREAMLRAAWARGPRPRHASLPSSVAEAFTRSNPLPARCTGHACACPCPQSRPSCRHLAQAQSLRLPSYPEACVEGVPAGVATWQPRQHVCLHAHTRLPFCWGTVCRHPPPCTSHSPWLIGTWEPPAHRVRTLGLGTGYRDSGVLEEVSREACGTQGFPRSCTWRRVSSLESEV
UniProt Q62645, whole entry: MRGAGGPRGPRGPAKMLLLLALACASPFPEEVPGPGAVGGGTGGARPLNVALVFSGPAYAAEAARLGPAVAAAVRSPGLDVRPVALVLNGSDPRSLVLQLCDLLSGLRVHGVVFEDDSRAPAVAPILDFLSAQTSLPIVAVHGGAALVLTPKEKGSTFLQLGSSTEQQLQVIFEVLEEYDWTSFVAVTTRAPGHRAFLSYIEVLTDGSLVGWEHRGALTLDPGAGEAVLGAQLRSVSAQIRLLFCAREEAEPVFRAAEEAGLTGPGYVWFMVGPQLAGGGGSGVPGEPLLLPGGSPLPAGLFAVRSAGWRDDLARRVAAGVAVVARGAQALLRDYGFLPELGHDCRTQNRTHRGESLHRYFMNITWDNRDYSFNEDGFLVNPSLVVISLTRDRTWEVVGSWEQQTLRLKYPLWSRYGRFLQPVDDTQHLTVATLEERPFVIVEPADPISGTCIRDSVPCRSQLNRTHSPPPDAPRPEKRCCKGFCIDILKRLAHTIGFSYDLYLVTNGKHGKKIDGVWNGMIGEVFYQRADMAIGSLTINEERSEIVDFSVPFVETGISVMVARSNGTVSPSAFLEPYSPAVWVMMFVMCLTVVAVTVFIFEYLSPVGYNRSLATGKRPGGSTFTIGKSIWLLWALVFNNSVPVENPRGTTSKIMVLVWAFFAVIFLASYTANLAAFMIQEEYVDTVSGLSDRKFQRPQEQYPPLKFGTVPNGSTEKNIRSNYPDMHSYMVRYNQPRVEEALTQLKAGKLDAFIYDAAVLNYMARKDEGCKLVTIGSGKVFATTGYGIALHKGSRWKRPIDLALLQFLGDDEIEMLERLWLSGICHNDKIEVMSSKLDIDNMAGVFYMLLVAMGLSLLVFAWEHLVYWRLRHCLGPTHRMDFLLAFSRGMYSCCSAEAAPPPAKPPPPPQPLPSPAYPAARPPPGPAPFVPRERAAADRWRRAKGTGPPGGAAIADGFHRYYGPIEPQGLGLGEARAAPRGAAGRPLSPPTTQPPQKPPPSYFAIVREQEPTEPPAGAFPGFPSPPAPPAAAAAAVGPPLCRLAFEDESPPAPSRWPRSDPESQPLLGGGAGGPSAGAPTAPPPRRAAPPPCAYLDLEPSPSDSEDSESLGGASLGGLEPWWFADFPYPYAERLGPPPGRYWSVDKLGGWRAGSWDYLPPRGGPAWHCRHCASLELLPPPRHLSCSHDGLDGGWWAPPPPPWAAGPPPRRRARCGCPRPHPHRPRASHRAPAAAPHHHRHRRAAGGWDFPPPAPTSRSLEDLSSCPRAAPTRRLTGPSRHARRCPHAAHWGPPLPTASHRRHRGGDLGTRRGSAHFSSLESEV

How the values were obtained:
[1] = molecular target: Glutamate receptor ionotropic, NMDA 2B (Rattus norvegicus) (UniProt Q00960); conditions: Oocyte, filed as positive allosteric modulator
[2] = molecular target: Glutamate receptor ionotropic, NMDA 2C (Rattus norvegicus) (UniProt Q00961); conditions: Oocyte, filed as positive allosteric modulator
[3] = molecular target: Glutamate receptor ionotropic, NMDA 2D (Rattus norvegicus) (UniProt Q62645); conditions: Oocyte, filed as positive allosteric modulator
[4] = Kinetic solubility of compound in PBS at pH 7.3 by nephelometry
[5] = Stability in human plasma assessed as half life
[6] = Stability in mouse plasma assessed as half life
[7] = Stability in rat plasma assessed as half life
[8] = Apparent permeability in MDCK-MDR1 cells; conditions: dog
[9] = Half life in Sprague-Dawley rat at 1 mg/kg, iv; conditions: in vivo
[10] = Clearance in Sprague-Dawley rat at 1 mg/kg, iv; conditions: in vivo
[11] = Volume of distribution at steady state in Sprague-Dawley rat at 1 mg/kg, iv; conditions: in vivo
[12] = Half life in Sprague-Dawley rat at 10 mg/kg, po; conditions: in vivo
[13] = in vivo; conditions: Sprague-Dawley, rat, brain, iv, 1 mg/kg
[14] = in vivo; conditions: Sprague-Dawley, rat, plasma, iv, 1 mg/kg
[15] = in vivo; conditions: Sprague-Dawley, rat, ip, 10 mg/kg
[16] = in vivo; conditions: Sprague-Dawley, rat, ip, 10 mg/kg; remark: listed apart in the source
[17] = in vivo; conditions: Sprague-Dawley, rat, brain, ip, 10 mg/kg
[18] = in vivo; conditions: Sprague-Dawley, rat, plasma, ip, 10 mg/kg
[19] = in vivo; conditions: Sprague-Dawley, rat, po, 10 mg/kg
[20] = in vivo; conditions: Sprague-Dawley, rat, brain, po, 10 mg/kg
[21] = in vivo; conditions: Sprague-Dawley, rat, plasma, po, 10 mg/kg
[22] = in vivo; conditions: C57BL/6, mouse, ip, 10 mg/kg
[23] = in vivo; conditions: C57BL/6, mouse, ip, 10 mg/kg; remark: listed apart in the source
[24] = in vivo; conditions: C57BL/6, mouse, brain, ip, 10 mg/kg
[25] = in vivo; conditions: C57BL/6, mouse, plasma, ip, 10 mg/kg
[26] = in vivo; conditions: Sprague-Dawley, rat, plasma, po, 10 mg/kg; remark: listed apart in the source
[27] = in vitro; conditions: human, liver microsomes
[28] = in vitro; conditions: Sprague-Dawley, rat, liver microsomes
[29] = in vitro; conditions: human, hepatocytes
[30] = molecular target: Glutamate receptor ionotropic, NMDA 2B (Rattus norvegicus) (UniProt Q00960); conditions: Oocyte, filed as positive allosteric modulator; remark: listed apart in the source
[31] = molecular target: Glutamate receptor ionotropic, NMDA 2C (Rattus norvegicus) (UniProt Q00961); conditions: Oocyte, filed as positive allosteric modulator; remark: listed apart in the source
[32] = molecular target: Glutamate receptor ionotropic, NMDA 2D (Rattus norvegicus) (UniProt Q62645); conditions: Oocyte, filed as positive allosteric modulator; remark: listed apart in the source

Compound: Cc1sc2ncn(CC(=O)N3CC(F)C3)c(=O)c2c1-c1cccc(Br)c1
EC200 [1]: 14 µM
EC200 [2]: 8.9 µM
EC200 [3]: 11 µM

Compound: CC1(F)CN(C(=O)Cn2cnc3scc(-c4ccc(F)c(Br)c4)c3c2=O)C1
EC200 [1]: 0.49 µM
EC200 [2]: 0.22 µM
EC200 [3]: 0.28 µM

Compound: CCCC1(F)CN(C(=O)Cn2cnc3sc(C)c(-c4cccc(Br)c4)c3c2=O)C1
EC200 [2]: 27 µM
EC200 [3]: 12 µM

Compound: Cc1sc2ncn(CC(=O)N3CC[C@@H](F)C3)c(=O)c2c1-c1cccc(Br)c1
EC200 [1]: 9 µM
EC200 [2]: 4.8 µM
EC200 [3]: 6.1 µM

Compound: Cc1sc2ncn(CC(=O)N3CC(C)(F)C3)c(=O)c2c1-c1cc(Cl)ccc1F
EC200 [1]: 1.9 µM
EC200 [2]: 0.83 µM
EC200 [3]: 0.88 µM

Compound: Cc1sc2ncn(CC(=O)N3CCC[C@@H]3C)c(=O)c2c1-c1cccc(Br)c1
EC200 [1]: 34 µM
EC200 [2]: 9.7 µM
EC200 [3]: 11 µM

Compound: Cc1sc2ncn(CC(=O)N3CC(C)(F)C3)c(=O)c2c1-c1cc(F)cc(Cl)c1
EC200 [1]: 1.6 µM
EC200 [2]: 1.9 µM
EC200 [3]: 1.3 µM

Compound: Cc1sc2ncn(CC(=O)N3CC(C)(F)C3)c(=O)c2c1-c1ccc2ccn(C)c2c1
EC200 [1]: 2.6 µM
EC200 [2]: 3.1 µM
EC200 [3]: 3.7 µM

Compound: CCc1sc2ncn(CC(=O)N3CC(C)(F)C3)c(=O)c2c1-c1ccc(F)c(Br)c1
EC200 [1]: 0.76 µM
EC200 [2]: 0.49 µM
EC200 [3]: 0.64 µM

Compound: Cc1sc2ncn(CC(=O)N3CCC[C@H]3C)c(=O)c2c1-c1cccc(Br)c1
EC200 [1]: 18 µM
EC200 [2]: 8.8 µM
EC200 [3]: 11 µM

Compound: Cc1sc2ncn(CC(=O)N3CC(F)(C4CC4)C3)c(=O)c2c1-c1cccc(Br)c1
EC200 [1]: 6.3 µM
EC200 [2]: 1.6 µM
EC200 [3]: 1.4 µM

Compound: Cc1sc2ncn(CC(=O)N3CC(C)(F)C3)c(=O)c2c1-c1ccc(F)c(OC(C)C)c1
EC200 [1]: 1 µM
EC200 [2]: 0.78 µM
EC200 [3]: 0.83 µM

Compound: Cc1sc2ncn(CC(=O)N3CC(C)(F)C3)c(=O)c2c1-c1ccc2ccccc2c1
EC200 [1]: 0.86 µM
EC200 [2]: 1 µM
EC200 [3]: 1.4 µM

Compound: C#Cc1sc2ncn(CC(=O)N3CC(C)(F)C3)c(=O)c2c1-c1ccc(F)c(Br)c1
solubility kinetic [4]: 40 µM (≈ 19.1 µg/mL)
half-life [5]: > 4 h
half-life [6]: > 4 h
half-life [7]: > 4 h
Papp [8]: 15.3 ×10⁻⁶ cm/s
half-life [9]: 0.8 h
clearance [10]: 78.8 mL/min/kg
Vd [11]: 3.7 L/kg
half-life [12]: 6.4 h
EC200 [1]: 0.29 µM
EC200 [2]: 0.34 µM
EC200 [3]: 0.21 µM
Cmax [13]: 223 ng/mL
Cmax [14]: 289 ng/mL
half-life [15]: 2.8 h
CL/F [16]: 49.7 mL/min/kg
Cmax [17]: 666 ng/mL
Cmax [18]: 1050 ng/mL
CL/F [19]: 76.8 mL/min/kg
Cmax [20]: 117 ng/mL
Cmax [21]: 198 ng/mL
half-life [22]: 0.9 h
CL/F [23]: 52.8 mL/min/kg
Cmax [24]: 894 ng/mL
Cmax [25]: 2860 ng/mL
bioavailability [26]: 58%
microsomal CLint at 0.5 h, 3 µM [27]: 4 µL/min/mg
microsomal CLint at 0.5 h, 3 µM [28]: 12.4 µL/min/mg
CLint scaled [29]: 4.2 mL/min/kg

Compound: CC1(F)CN(C(=O)Cn2cnc3sc([N+](=O)[O-])c(-c4ccc(F)c(Br)c4)c3c2=O)C1
EC200 [1]: 8.3 µM
EC200 [2]: 4.4 µM
EC200 [3]: 4.8 µM

Compound: CC1(F)CN(C(=O)Cn2cnc3sc(C#N)c(-c4ccc(F)c(Br)c4)c3c2=O)C1
EC200 [1]: 0.26 µM
EC200 [2]: 0.18 µM
EC200 [3]: 0.23 µM

Compound: Cc1sc2ncn(CC(=O)N3CC(C)(F)C3)c(=O)c2c1-c1ccc2c(c1)OC(F)(F)O2
EC200 [1]: 1.8 µM
EC200 [2]: 2.5 µM
EC200 [3]: 2.7 µM

Compound: Cc1sc2ncn(CC(=O)N3CCC(C)C3)c(=O)c2c1-c1cccc(Br)c1 (stereo not drawn)
EC200 [1]: 7.8 µM
EC200 [2]: 1.6 µM
EC200 [3]: 2.1 µM

Compound: Cc1sc2ncn(CC(=O)N3CC(C)C3)c(=O)c2c1-c1cccc(Br)c1
EC200 [1]: 18 µM
EC200 [2]: 2.7 µM
EC200 [3]: 4.6 µM

Compound: Cc1sc2ncn(CC(=O)N3CC[C@H](F)C3)c(=O)c2c1-c1cccc(Br)c1
EC200 [1]: 3.8 µM
EC200 [2]: 2 µM
EC200 [3]: 2.6 µM

Compound: Cc1sc2ncn(CC(=O)N3CCC3)c(=O)c2c1-c1cccc(Br)c1
EC200 [1]: 20 µM
EC200 [2]: 23 µM

Compound: Cc1sc2ncn(CC(=O)N3CC(C)(F)C3)c(=O)c2c1-c1cccc(Cl)c1F
EC200 [1]: 1.9 µM
EC200 [2]: 1.2 µM
EC200 [3]: 1.2 µM

Compound: Cc1sc2ncn(CC(=O)N3CCC(F)(F)C3)c(=O)c2c1-c1cccc(Br)c1
EC200 [1]: 2.2 µM
EC200 [2]: 2 µM
EC200 [3]: 2.6 µM

Compound: Cc1sc2ncn(CC(=O)N3CCCC3)c(=O)c2c1-c1cccc(Br)c1
EC200 [30]: 12 µM
EC200 [31]: 6.2 µM
EC200 [32]: 6.6 µM

Further lines, results first:

EC200 [1]: 0.47 µM
EC200 [2]: 0.33 µM
EC200 [3]: 0.21 µM
Compound: Cc1sc2ncn(CC(=O)N3CC(C)(F)C3)c(=O)c2c1-c1ccc(F)c(Cl)c1

EC200 [1]: 0.6 µM
EC200 [2]: 0.52 µM
EC200 [3]: 0.49 µM
Compound: Cc1sc2ncn(CC(=O)N3CC(C)(F)C3)c(=O)c2c1-c1cccc(Br)c1

EC200 [1]: 3.5 µM
EC200 [2]: 2.1 µM
EC200 [3]: 2.5 µM
Compound: Cc1sc2ncn(CC(=O)N3CCC(C)(F)C3)c(=O)c2c1-c1cccc(Br)c1 (stereo not drawn)

EC200 [1]: 1.1 µM
EC200 [2]: 0.69 µM
EC200 [3]: 0.83 µM
Compound: CCC1(F)CN(C(=O)Cn2cnc3sc(C)c(-c4cccc(Br)c4)c3c2=O)C1

EC200 [1]: 1.1 µM
EC200 [2]: 0.73 µM
EC200 [3]: 0.65 µM
Compound: Cc1sc2ncn(CC(=O)N3CC(C)(F)C3)c(=O)c2c1-c1ccc(F)c(C#N)c1

EC200 [1]: 1.2 µM
EC200 [2]: 0.68 µM
EC200 [3]: 0.82 µM
Compound: Cc1sc2ncn(CC(=O)N3CC(C)(F)C3)c(=O)c2c1-c1cccc(Cl)c1

EC200 [1]: 1.6 µM
EC200 [2]: 1 µM
EC200 [3]: 0.93 µM
Compound: Cc1sc2ncn(CC(=O)N3CC(C)(F)C3)c(=O)c2c1-c1ccc(Cl)c(F)c1

EC200 [1]: 0.85 µM
EC200 [2]: 0.6 µM
EC200 [3]: 0.68 µM
Compound: CC1(F)CN(C(=O)Cn2cnc3sc(C(F)(F)F)c(-c4ccc(F)c(Br)c4)c3c2=O)C1

EC200 [1]: 1 µM
EC200 [2]: 0.83 µM
EC200 [3]: 0.57 µM
Compound: Cc1sc2ncn(CC(=O)N3CC(C)(F)C3)c(=O)c2c1-c1cccc(OC(F)(F)F)c1

EC200 [1]: 0.28 µM
EC200 [2]: 0.33 µM
EC200 [3]: 0.22 µM
Compound: Cc1sc2ncn(CC(=O)N3CC(C)(F)C3)c(=O)c2c1-c1ccc(Cl)c(Cl)c1

EC200 [1]: 5.3 µM
EC200 [2]: 2.9 µM
EC200 [3]: 3 µM
Compound: Cc1sc2ncn(CC(=O)N3CC(C)(C)C3)c(=O)c2c1-c1cccc(Br)c1

EC200 [1]: 0.55 µM
EC200 [2]: 0.36 µM
EC200 [3]: 0.26 µM
Compound: Cc1sc2ncn(CC(=O)N3CC(C)(F)C3)c(=O)c2c1-c1ccc(F)c(Br)c1

EC200 [1]: 1.7 µM
EC200 [2]: 0.66 µM
EC200 [3]: 0.61 µM
Compound: Cc1sc2ncn(CC(=O)N3CC(C)(F)C3)c(=O)c2c1-c1cccc(C(F)(F)F)c1

EC200 [1]: 2.2 µM
EC200 [2]: 0.45 µM
EC200 [3]: 0.4 µM
Compound: Cc1sc2ncn(CC(=O)N3CC(C)(F)C3)c(=O)c2c1-c1ccc(F)c(C(F)(F)F)c1
